Measurements reported in US9309242B2, “Substituted pyrido[2,3-b]pyrazines as FGFR kinase inhibitors” (priority 2011, dated 2016).

By UniProt entry, the sequences of proteins in these tests, tags left out. Where a name states a change or a piece, a line headed by the entry shows the natural chain unless it says otherwise. Residues count along the entry.
UniProt P11362, whole entry: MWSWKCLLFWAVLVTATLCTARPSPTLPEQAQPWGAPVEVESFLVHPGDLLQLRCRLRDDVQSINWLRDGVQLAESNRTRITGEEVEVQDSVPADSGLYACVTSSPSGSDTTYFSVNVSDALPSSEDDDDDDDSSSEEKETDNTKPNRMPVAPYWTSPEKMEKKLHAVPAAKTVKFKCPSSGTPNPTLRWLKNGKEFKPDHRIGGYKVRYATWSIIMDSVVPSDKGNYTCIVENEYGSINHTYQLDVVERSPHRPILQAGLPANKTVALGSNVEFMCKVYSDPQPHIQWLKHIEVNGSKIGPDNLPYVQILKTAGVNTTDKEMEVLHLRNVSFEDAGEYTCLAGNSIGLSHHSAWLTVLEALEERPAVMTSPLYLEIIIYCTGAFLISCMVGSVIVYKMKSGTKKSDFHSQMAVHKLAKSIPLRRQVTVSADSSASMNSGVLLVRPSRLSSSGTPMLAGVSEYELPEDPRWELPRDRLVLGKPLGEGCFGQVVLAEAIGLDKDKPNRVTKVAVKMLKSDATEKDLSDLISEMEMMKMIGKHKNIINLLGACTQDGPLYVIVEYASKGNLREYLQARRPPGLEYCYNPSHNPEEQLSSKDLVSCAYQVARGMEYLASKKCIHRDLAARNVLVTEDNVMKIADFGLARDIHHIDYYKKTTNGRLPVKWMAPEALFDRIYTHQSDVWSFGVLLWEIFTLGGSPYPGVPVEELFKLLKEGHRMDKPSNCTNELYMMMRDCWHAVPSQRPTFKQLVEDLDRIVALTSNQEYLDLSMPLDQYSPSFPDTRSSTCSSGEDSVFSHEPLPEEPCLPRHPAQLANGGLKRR
UniProt P11362, 22-822 limits assumed: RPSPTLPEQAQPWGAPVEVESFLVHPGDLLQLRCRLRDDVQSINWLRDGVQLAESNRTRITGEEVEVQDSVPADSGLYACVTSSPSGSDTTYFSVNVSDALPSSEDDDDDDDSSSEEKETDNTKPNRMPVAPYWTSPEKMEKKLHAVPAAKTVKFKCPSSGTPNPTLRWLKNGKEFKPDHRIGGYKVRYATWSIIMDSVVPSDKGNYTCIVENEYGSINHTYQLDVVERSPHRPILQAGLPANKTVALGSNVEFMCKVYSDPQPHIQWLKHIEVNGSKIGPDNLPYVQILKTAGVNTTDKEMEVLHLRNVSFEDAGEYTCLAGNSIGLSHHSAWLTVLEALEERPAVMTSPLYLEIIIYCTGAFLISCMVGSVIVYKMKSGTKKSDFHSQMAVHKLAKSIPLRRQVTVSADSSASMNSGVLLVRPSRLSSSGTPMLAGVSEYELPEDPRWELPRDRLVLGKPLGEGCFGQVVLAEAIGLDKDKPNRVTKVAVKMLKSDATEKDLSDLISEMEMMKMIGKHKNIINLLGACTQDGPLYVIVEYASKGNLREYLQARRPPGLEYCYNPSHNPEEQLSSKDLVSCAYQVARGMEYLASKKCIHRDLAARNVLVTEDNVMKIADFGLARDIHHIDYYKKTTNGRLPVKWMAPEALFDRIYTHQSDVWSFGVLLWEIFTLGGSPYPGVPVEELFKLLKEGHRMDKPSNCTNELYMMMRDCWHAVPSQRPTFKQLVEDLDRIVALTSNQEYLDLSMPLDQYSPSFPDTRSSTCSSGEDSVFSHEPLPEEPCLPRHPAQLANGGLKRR
UniProt P22607, whole entry: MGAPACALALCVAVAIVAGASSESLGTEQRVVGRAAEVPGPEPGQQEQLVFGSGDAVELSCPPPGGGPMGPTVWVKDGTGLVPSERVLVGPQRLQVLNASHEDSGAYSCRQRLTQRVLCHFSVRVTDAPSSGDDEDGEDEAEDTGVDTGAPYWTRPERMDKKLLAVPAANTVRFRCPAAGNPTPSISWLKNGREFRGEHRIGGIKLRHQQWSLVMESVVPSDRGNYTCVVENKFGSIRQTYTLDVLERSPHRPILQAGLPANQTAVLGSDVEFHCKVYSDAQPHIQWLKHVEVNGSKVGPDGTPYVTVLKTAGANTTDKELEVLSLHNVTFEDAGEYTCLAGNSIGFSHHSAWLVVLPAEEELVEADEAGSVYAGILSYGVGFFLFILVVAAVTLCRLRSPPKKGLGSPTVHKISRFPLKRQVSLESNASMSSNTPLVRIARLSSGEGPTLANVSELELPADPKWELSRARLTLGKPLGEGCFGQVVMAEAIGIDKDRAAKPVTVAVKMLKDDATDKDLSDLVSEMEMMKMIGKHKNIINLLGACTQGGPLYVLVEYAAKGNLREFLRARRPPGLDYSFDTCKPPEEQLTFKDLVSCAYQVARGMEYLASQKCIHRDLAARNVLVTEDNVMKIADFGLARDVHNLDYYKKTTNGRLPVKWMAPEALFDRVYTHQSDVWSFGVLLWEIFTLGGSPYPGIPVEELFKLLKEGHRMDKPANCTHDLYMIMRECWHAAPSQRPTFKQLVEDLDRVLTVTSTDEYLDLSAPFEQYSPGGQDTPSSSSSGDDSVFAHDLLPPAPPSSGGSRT
UniProt P22607, 23-806 limits assumed: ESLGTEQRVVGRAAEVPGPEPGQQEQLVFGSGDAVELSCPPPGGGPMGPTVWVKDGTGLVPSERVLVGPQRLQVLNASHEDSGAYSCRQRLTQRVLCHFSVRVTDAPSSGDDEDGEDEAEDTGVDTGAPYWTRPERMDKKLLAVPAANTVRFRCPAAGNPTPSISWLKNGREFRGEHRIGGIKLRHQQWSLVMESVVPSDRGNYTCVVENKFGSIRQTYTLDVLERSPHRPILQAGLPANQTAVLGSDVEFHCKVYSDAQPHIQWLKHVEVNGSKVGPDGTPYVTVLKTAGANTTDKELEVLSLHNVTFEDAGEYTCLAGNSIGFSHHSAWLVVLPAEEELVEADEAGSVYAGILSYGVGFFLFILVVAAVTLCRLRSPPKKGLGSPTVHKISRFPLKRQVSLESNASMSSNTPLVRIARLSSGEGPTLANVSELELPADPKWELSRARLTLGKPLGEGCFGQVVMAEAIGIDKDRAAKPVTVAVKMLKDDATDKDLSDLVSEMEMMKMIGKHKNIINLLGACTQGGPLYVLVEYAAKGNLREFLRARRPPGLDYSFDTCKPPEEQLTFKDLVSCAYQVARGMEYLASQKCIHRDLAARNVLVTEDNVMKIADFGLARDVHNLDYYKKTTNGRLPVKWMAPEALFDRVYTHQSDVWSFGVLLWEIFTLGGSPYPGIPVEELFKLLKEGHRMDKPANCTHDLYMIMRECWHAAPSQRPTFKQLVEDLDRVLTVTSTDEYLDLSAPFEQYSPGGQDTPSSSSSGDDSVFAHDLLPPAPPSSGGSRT
UniProt P22455, whole entry: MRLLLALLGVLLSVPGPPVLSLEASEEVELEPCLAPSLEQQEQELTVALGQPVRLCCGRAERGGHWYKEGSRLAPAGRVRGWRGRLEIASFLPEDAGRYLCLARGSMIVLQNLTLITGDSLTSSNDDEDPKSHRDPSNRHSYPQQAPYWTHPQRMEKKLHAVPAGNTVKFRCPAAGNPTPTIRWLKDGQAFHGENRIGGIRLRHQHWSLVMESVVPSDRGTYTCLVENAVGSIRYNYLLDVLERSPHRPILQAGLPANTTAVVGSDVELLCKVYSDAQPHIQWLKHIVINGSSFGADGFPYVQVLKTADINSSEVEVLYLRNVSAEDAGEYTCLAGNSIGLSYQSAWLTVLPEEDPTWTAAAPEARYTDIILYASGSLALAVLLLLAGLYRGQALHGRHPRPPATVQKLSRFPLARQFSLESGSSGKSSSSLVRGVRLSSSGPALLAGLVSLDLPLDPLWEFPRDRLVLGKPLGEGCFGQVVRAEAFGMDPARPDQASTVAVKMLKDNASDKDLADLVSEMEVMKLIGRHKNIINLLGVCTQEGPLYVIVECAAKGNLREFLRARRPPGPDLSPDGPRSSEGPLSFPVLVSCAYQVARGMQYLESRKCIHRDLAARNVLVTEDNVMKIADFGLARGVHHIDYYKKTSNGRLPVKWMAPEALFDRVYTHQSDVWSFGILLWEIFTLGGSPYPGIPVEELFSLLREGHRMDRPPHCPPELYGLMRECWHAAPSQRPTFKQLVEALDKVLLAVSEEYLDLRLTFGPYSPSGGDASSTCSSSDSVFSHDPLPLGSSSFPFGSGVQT
UniProt P22455, 22-802 limits assumed: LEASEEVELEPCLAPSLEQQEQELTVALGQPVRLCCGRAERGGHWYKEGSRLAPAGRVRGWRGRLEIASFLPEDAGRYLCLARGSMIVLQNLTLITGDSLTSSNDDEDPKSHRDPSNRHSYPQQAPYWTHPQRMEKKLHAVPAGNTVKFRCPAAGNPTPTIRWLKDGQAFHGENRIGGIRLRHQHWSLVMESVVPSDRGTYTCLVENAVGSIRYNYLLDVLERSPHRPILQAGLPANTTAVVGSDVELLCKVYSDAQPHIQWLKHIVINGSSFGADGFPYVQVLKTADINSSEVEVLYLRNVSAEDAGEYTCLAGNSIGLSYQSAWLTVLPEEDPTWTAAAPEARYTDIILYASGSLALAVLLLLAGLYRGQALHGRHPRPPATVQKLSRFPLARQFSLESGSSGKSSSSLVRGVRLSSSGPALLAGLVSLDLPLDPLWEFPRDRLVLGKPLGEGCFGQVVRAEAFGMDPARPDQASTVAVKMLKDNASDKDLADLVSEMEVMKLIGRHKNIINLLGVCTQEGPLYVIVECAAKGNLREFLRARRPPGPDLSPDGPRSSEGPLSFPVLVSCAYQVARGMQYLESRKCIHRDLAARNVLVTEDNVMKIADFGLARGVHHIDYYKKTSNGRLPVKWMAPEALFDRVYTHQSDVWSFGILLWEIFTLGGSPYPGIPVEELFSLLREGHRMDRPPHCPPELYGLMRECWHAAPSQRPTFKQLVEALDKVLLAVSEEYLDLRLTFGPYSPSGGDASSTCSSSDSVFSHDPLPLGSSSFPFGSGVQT
UniProt P35968, whole entry: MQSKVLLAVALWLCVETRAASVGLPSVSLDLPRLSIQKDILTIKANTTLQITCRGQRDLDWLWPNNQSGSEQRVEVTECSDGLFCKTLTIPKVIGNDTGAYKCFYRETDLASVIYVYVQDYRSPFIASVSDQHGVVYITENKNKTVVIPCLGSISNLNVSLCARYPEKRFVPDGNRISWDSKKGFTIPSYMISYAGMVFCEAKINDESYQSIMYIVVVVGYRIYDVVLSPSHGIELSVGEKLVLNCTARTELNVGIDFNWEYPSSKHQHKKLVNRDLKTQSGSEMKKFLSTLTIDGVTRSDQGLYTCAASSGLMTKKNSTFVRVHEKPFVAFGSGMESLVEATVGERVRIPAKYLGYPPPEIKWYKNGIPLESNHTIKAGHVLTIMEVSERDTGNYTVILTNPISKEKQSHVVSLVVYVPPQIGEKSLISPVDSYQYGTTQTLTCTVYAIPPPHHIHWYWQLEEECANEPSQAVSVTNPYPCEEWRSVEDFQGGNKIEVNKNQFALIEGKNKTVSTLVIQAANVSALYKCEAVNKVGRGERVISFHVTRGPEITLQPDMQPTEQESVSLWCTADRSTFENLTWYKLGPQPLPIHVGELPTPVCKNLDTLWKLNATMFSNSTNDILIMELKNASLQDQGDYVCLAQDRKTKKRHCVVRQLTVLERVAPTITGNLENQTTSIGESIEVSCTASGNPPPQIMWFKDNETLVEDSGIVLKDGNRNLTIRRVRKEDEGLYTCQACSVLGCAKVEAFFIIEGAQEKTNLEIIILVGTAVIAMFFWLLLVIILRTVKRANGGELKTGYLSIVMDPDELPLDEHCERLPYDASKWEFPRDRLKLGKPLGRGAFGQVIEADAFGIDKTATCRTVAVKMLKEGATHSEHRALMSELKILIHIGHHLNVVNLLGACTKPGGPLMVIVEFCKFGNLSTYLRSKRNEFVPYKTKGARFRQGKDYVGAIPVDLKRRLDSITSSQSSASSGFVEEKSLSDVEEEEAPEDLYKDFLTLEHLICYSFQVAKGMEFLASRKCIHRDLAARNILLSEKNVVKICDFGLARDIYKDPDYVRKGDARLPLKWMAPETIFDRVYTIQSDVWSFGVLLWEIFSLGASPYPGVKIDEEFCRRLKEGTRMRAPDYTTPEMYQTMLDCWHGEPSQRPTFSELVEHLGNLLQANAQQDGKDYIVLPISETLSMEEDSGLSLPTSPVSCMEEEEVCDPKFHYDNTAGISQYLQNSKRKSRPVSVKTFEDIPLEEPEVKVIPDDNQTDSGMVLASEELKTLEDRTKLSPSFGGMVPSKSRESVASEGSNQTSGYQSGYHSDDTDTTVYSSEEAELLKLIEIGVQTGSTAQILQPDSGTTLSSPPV

Experiments:
FGFR1 (h) = FGFR1 (h) (Homo sapiens, UniProt P11362); assay: FGFR1 (enzymatic assay), TR-FRET; format: biochemical; details: average values if tested multiple times
FGFR2 (h) = FGFR2 (h) (Homo sapiens, UniProt P21802); assay: FGFR2 (enzymatic assay), TR-FRET; format: biochemical; details: average values if tested multiple times
FGFR3 (h) = FGFR3 (h) (Homo sapiens, UniProt P22607); assay: FGFR3 (enzymatic assay), TR-FRET; format: biochemical; details: average values if tested multiple times
FGFR4 (h) = FGFR4 (h) (Homo sapiens, UniProt P22455); assay: FGFR4 (enzymatic assay), TR-FRET; format: biochemical; details: average values if tested multiple times
KDR (h) = KDR (h) (Homo sapiens, UniProt P35968); assay: KDR (VEGFR2) (enzymatic assay), TR-FRET; details: average values if tested multiple times
[1] = biological target: Ba/F3-FGFR1-transfected cells (Homo sapiens, UniProt P11362); assay: Ba/F3-FGFR1 (minus IL3) cellular proliferation assay, Alamar Blue; format: cell-based
[2] = tested on: Ba/F3-FGFR1-transfected cells; assay: Ba/F3-FGFR1 (plus IL3) cellular proliferation assay, counterscreen with 10 ng/ml murine IL3; format: cell-based; details: plus IL3 (10 ng/ml murine IL3, counterscreen)
Method: Ba/F3-FGFR1 (Minus IL3 or Plus IL3) (Cellular Proliferation Assay)
(§1) In a 384 well plate, 100 nl of compound dilution in DMSO was sprayed before adding 50 μl cell culture medium (phenol red free RPMI-1640, 10% FBS, 2 mM L-Glutamine and 50 μg/ml Gentamycin) containing 20000 cells per well of Ba/F3-FGFR1-transfected cells. Cells were put in an incubator at 37° C. and 5% CO2. After 24 hours, 10 μl of Alamar Blue solution (0.5 mM K3Fe(CN)6, 0.5 mM K4Fe(CN)6, 0.15 mM Resazurin and 100 mM Phosphate Buffer) was added to the wells, incubated for 4 hours at 37° C. and 5% CO2 before RFU's (Relative Fluorescence Units) (ex. 540 nm., em. 590 nm.) were measured in a fluororescence plate reader.
(§2) As a counterscreen the same experiment was performed in the presence of 10 ng/ml murine IL3.

[3] = biological target: Ba/F3-FGFR3-transfected cells (Homo sapiens, UniProt P22607); assay: Ba/F3-FGFR3 (minus IL3) cellular proliferation assay, Alamar Blue; format: cell-based
[4] = tested on: Ba/F3-FGFR3-transfected cells; assay: Ba/F3-FGFR3 (plus IL3) cellular proliferation assay, counterscreen with 10 ng/ml murine IL3; format: cell-based; details: plus IL3 (10 ng/ml murine IL3, counterscreen)
Method: Ba/F3-FGFR3 (Minus IL3 or Plus IL3) (Cellular Proliferation Assay)
as §1, with “Ba/F3-FGFR3-transfected” for “Ba/F3-FGFR1-transfected”
as §2

[5] = biological target: Ba/F3-KDR-transfected cells (Homo sapiens, UniProt P35968); assay: Ba/F3-KDR (minus IL3) cellular proliferation assay, Alamar Blue; format: cell-based
Method: (§3) Ba/F3-KDR (Minus IL3 or Plus IL3) (Cellular Proliferation Assay)
as §1, with “n1” for “nl”, “Ba/F3-KDR-transfected” for “Ba/F3-FGFR1-transfected”, “reader. […]” for “reader.”

[6] = tested on: Ba/F3-KDR-transfected cells; assay: Ba/F3-KDR (plus IL3) cellular proliferation assay, counterscreen with 10 ng/ml murine IL3; format: cell-based; details: plus IL3 (10 ng/ml murine IL3, counterscreen)
Method: as §3
as §1, with “n1” for “nl”, “Ba/F3-KDR-transfected” for “Ba/F3-FGFR1-transfected”
as §2

[7] = biological target: Ba/F3-Flt3-transfected cells (Homo sapiens, UniProt P36888, cells depend on it, form not given); assay: Ba/F3-Flt3 (minus IL3) cellular proliferation assay, Alamar Blue; format: cell-based
[8] = tested on: Ba/F3-Flt3-transfected cells; assay: Ba/F3-Flt3 (plus IL3) cellular proliferation assay, counterscreen with 10 ng/ml murine IL3; format: cell-based; details: plus IL3 (10 ng/ml murine IL3, counterscreen)
Method: Ba/F3-Flt3 (Minus IL3 or Plus IL3) (Cellular Proliferation Assay)
as §1, with “Ba/F3-Flt3-transfected” for “Ba/F3-FGFR1-transfected”
as §2

[9] = biological target: Ba/F3-FGFR4-transfected cells (Homo sapiens, UniProt P22455); assay: Ba/F3-FGFR4 cellular proliferation assay, Alamar Blue; format: cell-based

Row | Structure (SMILES) | FGFR 1 pIC50 (FGFR1 (h)) | FGFR 2 pIC50 (FGFR2 (h)) | FGFR 3 pIC50 (FGFR3 (h)) | FGFR 4 pIC50 (FGFR4 (h)) | VEGFR 2 (KDR) pIC50 (KDR (h)) | BAF3-FGFR1 (MIN IL3) pIC50 [1] | BAF3-FGFR1 (PLUS IL3) pIC50 [2] | BAF3-FGFR3 (MIN IL3) pIC50 [3] | BAF3-FGFR3 (PLUS IL3) pIC50 [4] | BAF3-KDR (MIN IL3) pIC50 [5] | BAF3-KDR (PLUS IL3) pIC50 [6] | BAF3-FLT3 (MIN IL3) pIC50 [7] | BAF3_FLT3 (PLUS IL3) pIC50 [8] | BAF3-FGFR4 pIC50 [9]
1 | COc1cc(N=c2ccc3ncc(-c4cnn(C)c4)nc3n2CC(O)C(F)(F)F)c(F)c(OC)c1 (stereo not shown) | 9.17 | 8.68 | 9.04 | 8.82 | 7.77 | 7.71 | <5 | ~7.57 | <5 | 5.77 | <5 | <5 | <5 | 7.18
2 | COc1cc(OC)c(F)c(N(CC(O)C(F)(F)F)c2ccc3ncc(-c4cnn(C)c4)nc3n2)c1 (stereo not shown) | 8.82 | 8.33 | 8.66 | 8.58 | 7.19 | 7.88 | <5 | 7.80 | <5 | 5.69 | <5 | <5 | <5 | 7.35
